In the assay the test system is SARS-CoV-2. The format is cell-based.

For the molecule `C#C[C@H](C[C@@H]1CCNC1=O)NC(=O)[C@@H]1[C@@H]2[C@H](CN1C(=O)[C@@H](NC(=O)C(F)(F)F)C(C)(C)C)C2(C)C` [Compound 4d, O=C1NCC[C@H]1C[C@@H](C#C)NC([C@H]2N(C([C@@H](NC(C(F)(F)F)=O)C(C)(C)C)=O)C[C@H]3[C@@H]2C3(C)C)=O], the antiviral activity result is reported as “strong, dose-dependent antiviral activity” and the “inhibition of SARS-CoV-2 infection” value is given as “nearly complete inhibition”.

For the origin of these results see PMC10510381, “Alkyne as a Latent Warhead to Covalently Target SARS-CoV-2 Main Protease” (Journal of Medicinal Chemistry, 2023).
